## Ab-14 light chain CDR variants: yeast mating affinities

From the AlphaSeq antibody data of Li et al. 2023 (doi:10.1038/s41467-023-39022-2), copy in the FLAb collection.

Target: peptide PDVDLGDISGINAS, taken from heptad repeat 2 (HR2) of SARS-CoV-2 spike.

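The parent was found by panning a naive human phage display library on the peptide. The variants were designed computationally from a first round of random CDR variants and then made and measured. Group labels follow the data file (Ctrl: baseline library sampled from a position-specific scoring matrix, with some repeated check sequences; En: ensemble of fine-tuned language models; GP: Gaussian process model; HC: hill climbing; Gen: genetic algorithm; Gibbs: Gibbs sampling; a sequence that several methods proposed may carry one label only). The scFvs were displayed on barcoded MATa yeast, the peptide on MATalpha yeast. After mating in shaken culture at 30 °C for 16 h, diploids were selected and their barcode pairs sequenced. Scores were corrected for input abundance and mapped to Kd with protein pairs of known affinity run in the same pool. Mating was done six times.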

Parent scFv Ab-14: VH joined to VL by a (GGGGS)3 linker. Changes lie in the light chain CDRs alone.
VH: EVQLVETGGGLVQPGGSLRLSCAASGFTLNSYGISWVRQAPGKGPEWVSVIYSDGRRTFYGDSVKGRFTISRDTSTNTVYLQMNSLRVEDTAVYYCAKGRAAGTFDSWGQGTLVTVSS
VL: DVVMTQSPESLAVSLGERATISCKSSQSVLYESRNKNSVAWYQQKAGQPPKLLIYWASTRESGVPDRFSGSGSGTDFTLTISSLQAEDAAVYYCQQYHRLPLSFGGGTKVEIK

The parent's light chain CDRs are KSSQSVLYESRNKNSVA, WASTRES, QQYHRLPLS; each variant's own CDRs replace them letter for letter. Variants here have more than six changes. The read-out is the apparent dissociation constant on a log10 scale (nM): the lower, the stronger. The mean shown is taken over the replicates in which the pair was detected. Where no diploid with the target was found in any replicate, the entry reads "no signal": below detection, most likely a poor binder, though not proof of it. Of ten entries with the parent sequence, four were seen in most replicates (averages 0.34 to 2.37), three in one and three in none, so single entries are noisy. Background: pairings of all light chain designs with three empty control strains gave a value in 4% of cases (median 2.64, 5th percentile 1.59). Values in that range, when seen in few replicates, are hard to tell from nonspecific mating. A sequence measured in both rounds can read differently, since the two assays cover different ranges. The authors' rule: three or more of the six replicates give a measured affinity, fewer mean a poor binder.

CDR-L1	CDR-L2	CDR-L3	group	mean log10 Kd (nM)	seen in
KLYYDAAEWVMDTENIA	EKTISYQ	QQYHRLPLS	En_Gibbs	1.61	5 of 6
KWQNDSLFMGQYMNNIA	NTSLRTE	QQYYRLPLT	En_Gibbs	0.46	6 of 6
KFSQAVNTMSVSKSAVA	EMSTRPE	QQYNRLPLA	En_Gen	0.67	6 of 6
TLTQSMDMTSRNVNSVA	DLTTRGN	QQYHRLPLS	En_HC	0.50	6 of 6
NISINQMDEYKMRSNIA	NTSQKAM	QQYFHLPLM	En_Gibbs	0.23	6 of 6
TISQMTSLFSQSINNVA	EVSMRES	QQYDRLPLI	En_Gen	0.67	6 of 6
KLTMISGLEKVSTSNVA	EMETREE	QQYNRLPLS	En_Gen	1.94	6 of 6
KIGGVTNGISFSKNNVA	EQSTRED	QQYDRLPLS	En_HC	0.74	6 of 6
HIQQSVGMTSRNKNSVA	ENSTRED	QQYDRLPLS	En_HC	2.51	3 of 6
ALTSDLEVEQVNARAVA	NAHAVES	QQYQHLPLS	En_Gibbs	1.54	6 of 6
SLMHLSFVHPYEWNNVA	DASVKVS	QQYFRLPLV	En_Gibbs	1.24	6 of 6
KLRLHNLMFYENENSIA	DVSNRAY	QQYYRLPLN	En_Gibbs	1.54	6 of 6
KISQMARVGSTHGNSIA	EETTRAK	QQYHRLPLF	En_Gen	0.50	6 of 6
KISQMVRVGSTVKNSIA	EEVTRAN	QQYHRLPLA	En_Gen	0.67	6 of 6
MISQLFMYGSRNRNSVA	QASTRES	QQYDRLPLI	En_HC	0.64	6 of 6
HLSLPWQLGHDSTNAVA	NDSTLMT	QHYSRLPLS	En_Gibbs	0.15	6 of 6
RVSSELMAGEISYNAIA	NTKVLEY	QQYMRLPLG	En_Gibbs	0.24	6 of 6
KVSQSVCYEDRLKNSVA	NASDRMS	QQYHRLPLS	GP_Gibbs	0.37	6 of 6
HIDDFEFSEGEKWNAIA	QDATRLQ	QSYQRLPLA	En_Gibbs	3.15	3 of 6
KLDMSDLMESRNWNAVA	SASTREI	QQYHRLPLS	GP_Gibbs	1.52	3 of 6
IIDQIMYHGNKRANSIA	QASERLN	QQYHHLPLT	En_Gen	1.15	6 of 6
KVQQLEPYESRNKNSVA	NASTREH	QQYHRLPLS	GP_Gibbs	0.55	6 of 6
QLEFEALGGANYDYSIA	AQDVAMP	QQYDRLPLI	En_Gibbs	1.79	1 of 6
MISQLMNYGQFAINSVA	QATIRNS	QQYDRLPLA	En_Gen	no signal	0 of 6
KLSMSWPMLSRNHNSVA	SASTRES	QQYHRLPLS	GP_Gibbs	0.25	6 of 6
MVSQLMLWGLHAKNSIA	HAQMRLN	QQYDRLPLF	En_Gen	no signal	0 of 6
VLSQDHDERGMYCDNIA	DESCREP	QQYFHLPLI	En_Gibbs	0.65	6 of 6
KIQMNEITLMENINSIA	NSEVIVQ	QSYFRLPLS	En_Gibbs	1.64	6 of 6
KLSQVTHSEHRMKNSIA	EMVTREK	QQYDRLPLS	En_HC	0.93	6 of 6
HLHTIMYTEGIGTNSIA	DANLHVD	QQYFRLPIS	En_Gibbs	0.56	6 of 6
HITYGMNVAGRHSSSIA	QAEERQK	QQYDRLPLS	En_Gen	0.58	6 of 6
KYSQSDEYESRNFNSVA	NASTRSH	QQYHRLPLS	GP_Gibbs	-0.04	6 of 6
KINGVEINFGEDWNAIA	EENLSNL	QQYFHLPLS	En_Gibbs	2.72	1 of 6
KIGATLNSLYEKQNNVA	DLVEREN	QQYHRLPLS	En_Gen	0.29	6 of 6
KISFWSYPGSLWHNNIA	GGSQRAE	QQYSRLPLN	En_Gibbs	1.13	6 of 6
KISQSFNVGTKNKNSLA	EMSTREF	QDYHRLPLS	En_HC	0.67	2 of 6
KASPSEMYESRMKNSVA	MASTRYE	QQYHRLPLS	GP_Gibbs	0.57	6 of 6
KVSQCNGGESRMKNSVA	HASQRES	QQYHRLPLS	GP_Gibbs	0.74	6 of 6
KVEQGVDDESRNDNSVA	WASTREG	QQYHRLPLS	GP_Gibbs	1.97	6 of 6
KLSQGTYGLTQSDSNVA	HDEMRWA	QQYDKLPLI	En_Gibbs	1.76	2 of 6
KLSISYLFLSQEKNSIA	ENSTRES	QHYHRLPLS	En_HC	no signal	0 of 6
ALALTLHQVDSQMNNIA	EGMLRES	QQYNRLPLG	En_Gibbs	0.91	6 of 6
HITMGMYVKGRHHSSIA	QAETRMQ	QQYDRLPLI	En_Gen	2.13	6 of 6
MISQLMNMGQFAINSVA	QASIRNH	QQYDRLPLI	En_Gen	1.89	6 of 6
MFSQLVYTGSRAKNAVA	QASTREN	QQYHRLPLS	En_HC	0.09	6 of 6
HLSGSVLMESRNKNSVA	SADTRLS	QQYHRLPLS	GP_Gibbs	0.17	6 of 6
KFQQMVMQEDRNKNSVA	QASTRLQ	QQYHRLPLS	GP_Gibbs	-0.18	6 of 6
TVSQVQGMLSHNKNSVA	DMNTRGS	QQYDRLPLS	En_HC	no signal	0 of 6
TIGPFLMTESHNKNNVA	GMQTRER	QQYHRLPLS	En_HC	0.27	6 of 6
SVTRETDGNGLKMNSVA	DAAEAMT	QQYQRLPLT	En_Gibbs	0.24	6 of 6
MISQLYNMGQFAINSVA	QASIRCN	QQYDRLPLA	En_Gen	no signal	0 of 6
IVSQLMLWGMHAKNSIA	EAQTRLN	QQYERLPLI	En_Gen	0.17	6 of 6
KYQELEPYESRNKNSVA	NASTRET	QQYHRLPLS	GP_Gibbs	0.09	6 of 6
MISQLMNMGQFAINSVA	QASLRND	QQYDRLPLM	En_Gen	1.25	6 of 6
MISQLMNMGQFAINSVA	QVSIRNE	QQYDRLPLM	En_Gen	2.04	4 of 6
SISGFMKSLAAHSNSVA	DMTNRED	QQYDRLPLS	En_Gen	-0.07	6 of 6
KQQFSSGMESRNKNSVA	EASTRCS	QQYHRLPLS	GP_Gibbs	0.06	6 of 6
KLSMFHQVESINKSNVA	EMVTRES	QQYDRLPLS	En_HC	1.49	5 of 6
KLQLNVVDGWAMHNNIA	GDAWRAR	QQYYHLPLM	En_Gibbs	1.38	6 of 6
KISGMYQKESKNKNSVA	EMVNREQ	QQYDRLPLS	En_HC	1.21	6 of 6
KIGATLNMLEHKENNVA	DLVERGN	QQYFRLPLS	En_Gen	0.15	6 of 6
NLKEMEGTNQTKHGNIA	SVDQTMT	QQYFRLPLA	En_Gibbs	1.16	6 of 6
ESSQSRLMESRNKNSVA	HAQTRES	QQYHRLPWN	Ctrl	1.88	3 of 6
KVSQLDLGESRNKNSVA	HAHTRLS	QQYHRLPLS	GP_Gibbs	1.07	6 of 6
TLALRTSYGNGLNKAIA	DVSIKDY	QQYARLPLL	En_Gibbs	1.68	5 of 6
HIQDAEGGLSSQWNSVA	STEERSD	QQYHRLPLS	En_Gibbs	1.04	6 of 6
NFSQMVLTGSTLRNSVA	HASTREQ	QQYHRLPLI	En_HC	1.40	6 of 6

Extract of 5 entries:

CDR-L1	CDR-L2	CDR-L3	group	mean log10 Kd (nM)	seen in
SISGFMKSLAAHSNSVA	DMTNRED	QQYDRLPLS	En_Gen	-0.07	6 of 6
KVQQLEPYESRNKNSVA	NASTREH	QQYHRLPLS	GP_Gibbs	0.55	6 of 6
KLRLHNLMFYENENSIA	DVSNRAY	QQYYRLPLN	En_Gibbs	1.54	6 of 6
KISFWSYPGSLWHNNIA	GGSQRAE	QQYSRLPLN	En_Gibbs	1.13	6 of 6
KLSMSWPMLSRNHNSVA	SASTRES	QQYHRLPLS	GP_Gibbs	0.25	6 of 6